In ChEMBL document CHEMBL5653621, “Freezing the Bioactive Conformation to Boost Potency: The Identification of BAY 85-8501, a Selective and Potent Inhibitor of Human Neutrophil Elastase for Pulmonary Diseases” (ChemMedChem, 2015):

Experiments:
[1] = Competitive inhibition of rat neutrophil elastase using varying levels of MeOSuc-AAPV-MCA as substrate measured at 60 mins interval for up to several hrs by Dixon plot analysis
Neutrophil elastase = target: T1, Neutrophil elastase (Mus musculus, UniProt Q3UP87); test: Competitive inhibition of mouse neutrophil elastase using varying levels of MeOSuc-AAPV-MCA as substrate measured at 60 mins interval for up to several hrs by Dixon plot analysis
T1 sequence (Q3UP87 whole entry): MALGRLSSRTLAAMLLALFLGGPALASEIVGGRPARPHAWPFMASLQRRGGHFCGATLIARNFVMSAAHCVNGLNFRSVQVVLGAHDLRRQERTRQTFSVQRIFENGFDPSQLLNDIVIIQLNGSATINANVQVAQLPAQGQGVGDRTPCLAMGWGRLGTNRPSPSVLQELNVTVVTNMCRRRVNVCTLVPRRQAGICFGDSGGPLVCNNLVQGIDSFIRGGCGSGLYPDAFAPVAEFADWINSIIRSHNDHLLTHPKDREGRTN

[2] = Inhibition of rat neutrophil elastase using MeOSuc-AAPV-MCA as substrate measured at 60 mins interval for up to several hrs by fluorescence assay
How it was run: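 Rat neutrophil elastase was acid-extracted from homogenized rat lung and enriched by ammonium sulfate precipitation. […] Enzyme was routinely 0.8 nM for 60 min, or 0.08 nM over several hours for very potent inhibitors. Fluorescence was read at ex 395/em 460 nm, and IC50 was interpolated (N≥4).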

For `CC(=O)C1=C(C)N(c2cccc(C(F)(F)F)c2)C(=O)N[C@@H]1c1ccc(C#N)nc1` [BAY-678], the Ki [1] was 600 nM, the Ki (Neutrophil elastase) was 700 nM and the IC50 [2] was 800 nM.
